Legend:
[1] = tested on: CD80-mediated and CD86-mediated cellular responses; settings: cited from earlier work
[2] = tested on: CD80-mediated costimulation of T cells; experiment: Proliferation of CD4-positive T cells stimulated with PMA plus CD80-positive CHO cells; type: cell-based, human; settings: [3H]thymidine, 72 hour culture
Method: (§1) Human CD4-positive T cells were isolated by immunomagnetic negative selection (Linsley et al., (1992) J. Ex . Med. 176:1595-1604). Isolated CD4-positive T cells were stimulated with phorbal myristate acetate (PMA) plus CD80-positive or CD86-positive CHO cells in the presence of titrating concentrations of inhibitor. CD4-positive T cells (8-10×10^4/well) were cultured in the presence of 1 nM PMA with or without irradiated CHO cell stimulators. Proliferative responses were measured by the addition of 1 μCi/well of [3H]thymidine during the final 7 hours of a 72 hour culture.

[3] = tested on: CD86-mediated costimulation of T cells; experiment: Proliferation of CD4-positive T cells stimulated with PMA plus CD86-positive CHO cells; type: cell-based, human; settings: [3H]thymidine, 72 hour culture
Method: as §1

[4] = tested on: allostimulated human T cells; experiment: Primary and secondary allostimulation of T cells with PM B lymphoblastoid cell line; type: cell-based
Method: Primary allostimulation occurred for 6 days, then the cells were pulsed with ^3H-thymidine for 7 hours, before incorporation of radiolabel was determined.
(§2) Secondary allostimulation was performed as follows. Seven day primary allostimulated T cells were harvested over lymphocyte separation medium (LSM) (ICN, Aurora, OH) and rested for 24 hours. […] Stimulation occurred for 3 days, then the cells were pulsed with radiolabel and harvested as above.

[5] = tested on: allostimulated human T cells; experiment: Cytokine production (ELISA) after secondary allostimulation; type: cell-based; settings: secondary allogeneic stimulus, 3 days
Method: as §2
To measure cytokine production (FIG. 26), duplicate secondary allostimulation plates were set up. After 3 days, culture media was assayed using ELISA kits (Biosource, Camarillo, Calif.) using conditions recommended by the manufacturer.

[6] = tested on: phytohemaglutinin-(PHA) stimulated monkey T cells; experiment: Monkey mixed lymphocyte response with PHA; type: cell-based; settings: PBMC from 2 monkeys, 2 μg/ml PHA, 3 days
Method: Peripheral blood mononuclear cells (PBMC'S; 3.5×10^4 cells/well from each monkey) from 2 monkeys were purified over lymphocyte separation medium (LSM) and mixed with 2 μg/ml phytohemaglutinin (PHA). The cells were stimulated 3 days then pulsed with radiolabel 16 hours before harvesting.

Row | Substance | lower concentration required for inhibition of CD80-mediated than CD86-mediated cellular responses [1] | inhibition of proliferation, PMA plus CD80-positive CHO [2] | inhibition of proliferation, PMA plus CD86-positive CHO [3] | inhibition of primary T cell proliferative response ([4]; primary allostimulation 6 days) | inhibition of secondary T cell proliferative response ([4]; secondary allostimulation 3 days) | blocking T cell IL-2 production [5] | blocking T cell IL-4 production [5] | blocking T cell γ-IFN production [5] | inhibition of monkey T cell proliferation [6]
1 | CTLA4Ig: soluble fusion protein comprising an extracellular domain of wildtype CTLA4 joined to an Ig tail (ATCC 68629) | approximately 100 fold | – | – | – | – | – | – | – | –
2 | L104EA29YIg: soluble CTLA4 mutant fusion protein with amino acid changes A29Y and L104E joined to an Ig tail (ATCC PTA-2104) | – | more than CTLA4Ig | more effective than CTLA4Ig | better than CTLA4Ig | better than CTLA4Ig | more potent than CTLA4Ig | more potent than CTLA4Ig | more potent than CTLA4Ig | better than CTLA4Ig

Source: patent US20030007968A1, “Methods of inducing organ transplant tolerance and correcting hemoglobinopathies” (priority 2001, published 2003)
